Results published in PubChem BioAssay AID720643 (The Scripps Research Institute Molecular Screening Center, 2013).
Calls of active or inactive are those of the source.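 Rule for the calls: active = EC50 of 10 µM or lower; inactive = EC50 above 10 µM.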

Protein sequences, listed by entry. Tags and fused reporters are not part of them.
UniProt P35363, whole entry, looked up: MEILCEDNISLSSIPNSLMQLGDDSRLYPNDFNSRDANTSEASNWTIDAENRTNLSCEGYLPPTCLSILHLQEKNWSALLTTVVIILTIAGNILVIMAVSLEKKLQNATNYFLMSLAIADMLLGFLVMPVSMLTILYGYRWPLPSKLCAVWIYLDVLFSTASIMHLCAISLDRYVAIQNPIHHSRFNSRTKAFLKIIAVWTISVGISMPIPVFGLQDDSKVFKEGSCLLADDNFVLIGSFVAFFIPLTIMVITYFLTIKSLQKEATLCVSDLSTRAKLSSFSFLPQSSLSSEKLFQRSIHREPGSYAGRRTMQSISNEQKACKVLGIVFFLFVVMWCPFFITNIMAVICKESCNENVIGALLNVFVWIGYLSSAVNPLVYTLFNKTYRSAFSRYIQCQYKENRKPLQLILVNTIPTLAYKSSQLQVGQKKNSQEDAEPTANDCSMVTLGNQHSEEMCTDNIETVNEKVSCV

Biological target: 5-hydroxytryptamine receptor 2A (Mus musculus) (UniProt P35363)
Assay: agonist EC50 at mouse 5-HT2A receptor – cell-based, luminescence, CHO-K1, powder samples, dose response, late-stage follow-up (AID 720643)
Conditions: CHO-K1 mHTR2A beta-arrestin PathHunter luminescence

With Nc1c2c(nc3ccccc13)CCCC2 as the compound, how does the EC50 read?
The EC50 was inactive: > 76.1 µM.
